From patent US20070248996A1, “Modulators of beta-amyloid peptide aggregation comprising D-amino acids” (Paraecis Pharmaceuticals, Inc., priority 1995, published 2007)

Assay: Brain uptake assay (Oldendorf technique, brain uptake index)
Conditions: percentage of the freely diffusable reference water; carotid bolus, 15 seconds; 14C-labelled; vehicle 50 mM cyclodextrin in 75% PBS

cholyl-D-Leu-D-Val-D-Phe-phenethylamide [PPI-494]
Brain Uptake Index (± SEM): 4.78 ± 0.36
